Only a part is listed here, and it is no random draw. Calls of active or inactive are those of the source. The calls were made as follows: active = hit-call score of the fitted dose curve at least 0.9, where 1 is the maximum; inactive = score below 0.9.
experiment: ATG_M_61_CIS: Attagene CIS-FACTORIAL HepG2 Assay for M61 Transcription Factor (Internal Marker) (AID 2282937); conditions: HepG2 Attagene CIS-FACTORIAL M61 internal marker reporter; actives raise or lower the signal
Description: ATG_CIS is a cell-based, multiplexed-readout assay that uses HepG2, a human liver cell line, with measurements taken at 24 hours after chemical dosing in a 24-well plate.ATG_M_61_CIS is one of 52 assay component(s) measured or calculated from the ATG_CIS assay. It is designed to make measurements of mRNA induction, a form of inducible reporter, as detected with fluorescence intensity signals by Reverse transcription polymerase chain reaction (RT-PCR) and Capillary electrophoresis technology.Data from the assay component ATG_M_61_CIS was analyzed into 1 assay endpoint. This assay endpoint, ATG_M_61_CIS, was analyzed with bidirectional fitting relative to DMSO as the negative control and baseline of activity. Using a type of inducible reporter, measures of mRNA for gain or loss-of-signal activity can be used to understand the background control at the transcription factor-level as they relate to the gene . Furthermore, this assay endpoint can be referred to as a secondary readout, because this assay has produced multiple assay endpoints where this one serves a background control function. To generalize the intended target to other relatable targets, this assay endpoint is annotated to the background measurement intended target family, where the subfamily is internal marker.
Human liver HepG2 cells are transiently transfected with multiple reporter transcription units (MRTUs) in 6-well plates using FuGene 6 reagent (Roche; 3 ml FuGene/1 mg DNA). The MRTU constructs are regulated by a cis-regulating element (promoter). […] A major difference between the CIS and TRANS system is that in CIS activities of endogenous TFs are measured, whereas the TRANS assay evaluates changes in activities of exogenous, chimeric NR-Gal4 proteins. […] At the end of 24 hour incubation, total RNA was isolated using TriZol reagent (Invitrogen). The isolated RNA is then reverse-transcribed using oligo(dT) primer and Mo-MLV reverse transcriptase (Invitrogen) with DNAse I (Ambion) treatment for 30 min. The one-tenth of the produced cDNA was amplified by PCR using Taq DNA polymerase (Invitrogen) and two reporter sequence-specific primers. The PCR products were fluorescently labeled by primer extension with 6-arboxyfluorescein (6-FAM) 5'-labeled reporter sequence-specific primer (2 min at 95 C, 20 s at 68 C and 10 min at 72 C) and these products were digested with 5U of HpaI (New England Biolabs) for 2h at 37 C. The fragments were purified using Qiaquick PCR columns (Qiagen), analyzed on an ABI 3130xL genetic analyzer (Applied Biosystems) with peak positions identified by using a set of X-rhodamine (ROX)-labeled MapMarker1000 molecular weight standards (BioVentures). The raw capillary electrophoresis data was processed using Attagraph software (Attagene).

Compound | outcome
COP(C)(=O)OC | inactive
COc1ccc([N+](=O)[O-])cc1[N+](=O)[O-] | inactive
O=[N+]([O-])c1cccc([N+](=O)[O-])c1 | inactive
Cc1ccc([N+](=O)[O-])c([N+](=O)[O-])c1 | inactive
CC(C)N(CCO)C(C)C | inactive
CC(C)OP(C)(=O)OC(C)C | inactive
Cc1c([N+](=O)[O-])cccc1[N+](=O)[O-] | inactive
Cc1ccc([N+](=O)[O-])cc1[N+](=O)[O-] | inactive
Cc1cccc([N+](=O)[O-])c1[N+](=O)[O-] | inactive
N#CBr | inactive
CN(C)CCCl | inactive
O=[N+]([O-])OCC(CO[N+](=O)[O-])(CO[N+](=O)[O-])CO[N+](=O)[O-] | inactive

— PubChem BioAssay (EPA / NIEHS)
